The target in the assay is Tubulin alpha chain (Sus scrofa) (UniProt P02550). The experiment in a line: Compound was tested for effective concentration for tubulin polymerization expressed as ratio of compound relative to taxol (EC0.01 at 5 uM). It counts as functional.

The chains behind the UniProt entries cited, without tags or fusion partners.
UniProt P02550, whole entry, looked up: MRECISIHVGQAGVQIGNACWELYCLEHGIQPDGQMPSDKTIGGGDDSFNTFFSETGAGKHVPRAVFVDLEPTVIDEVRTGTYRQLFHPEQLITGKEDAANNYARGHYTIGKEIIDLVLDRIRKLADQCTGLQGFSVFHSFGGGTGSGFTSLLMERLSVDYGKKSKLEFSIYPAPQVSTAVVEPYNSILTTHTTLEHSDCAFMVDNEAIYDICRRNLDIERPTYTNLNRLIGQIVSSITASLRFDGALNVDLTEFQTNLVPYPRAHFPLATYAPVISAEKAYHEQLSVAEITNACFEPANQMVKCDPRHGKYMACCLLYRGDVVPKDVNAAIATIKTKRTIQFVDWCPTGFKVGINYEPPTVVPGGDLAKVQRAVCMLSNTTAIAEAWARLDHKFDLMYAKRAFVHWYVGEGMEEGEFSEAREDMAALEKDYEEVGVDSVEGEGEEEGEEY

On to `CC(=O)O[C@H]1C(=O)[C@@]2(C)[C@H]([C@H](OC(=O)c3ccccc3)[C@]3(O)C[C@H](OC(=O)[C@H](O)[C@@H](NC(=O)c4ccccc4)c4ccccc4)C(C)=C1C3(C)C)[C@]1(OC(C)=O)CO[C@@H]1C[C@@H]2O` [PACLITAXEL], for which the Ratio was 1.

The values are drawn from ChEMBL document CHEMBL1127240, “Structure-activity relationships of taxol: synthesis and biological evaluation of C2 taxol analogs” (Bioorg Med Chem Lett, 1994).
